This experiment has as its target T1, GLP-1 receptor (Rattus norvegicus, UniProt P32301).
T1 construct: 96-well assay plate containing RIN m5f cell membranes in an ATP/GTP mixture; endogenous in cells; host or cells: RIN m5f cell membranes
T1 sequence (P32301 22-463): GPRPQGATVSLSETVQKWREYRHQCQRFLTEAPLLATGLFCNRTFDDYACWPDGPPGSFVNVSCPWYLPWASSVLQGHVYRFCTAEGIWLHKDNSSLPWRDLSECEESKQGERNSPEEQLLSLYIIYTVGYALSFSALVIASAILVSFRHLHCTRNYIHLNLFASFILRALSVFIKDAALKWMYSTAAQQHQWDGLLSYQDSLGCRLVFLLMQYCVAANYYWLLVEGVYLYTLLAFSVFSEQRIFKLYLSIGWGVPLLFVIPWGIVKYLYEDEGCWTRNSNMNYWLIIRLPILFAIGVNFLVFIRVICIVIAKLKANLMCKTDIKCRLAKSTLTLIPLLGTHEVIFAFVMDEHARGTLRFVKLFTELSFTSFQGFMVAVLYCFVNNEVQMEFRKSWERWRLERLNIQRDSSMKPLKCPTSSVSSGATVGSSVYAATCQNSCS
As to the kind of experiment: in vitro functional assay at the GLP-1 receptor (cyclase, cAMP production in RIN m5f cell membranes). Format: biochemical. The following applies: Table 1, cAMP production (AlphaScreen). As to the method: The compounds shown in Table 1 below were analyzed in an in vitro functional assay at the GLP-1 receptor. The assay was conducted as follows: Membrane fractions were prepared from confluent cultures of RIN m5f cells. Compounds were serially diluted with an assay buffer, and then added to a 96-well assay plate containing RIN m5f cell membranes in an ATP/GTP mixture. Cyclase activities were determined by measuring the production of cAMP induced through GLP-1 receptor activation. Quantification of cAMP production was achieved through a competitive chemiluminescence assay with a biotinylated-cAMP probe using Perkin Elmer Fusion™-Alpha Microplate Analyzer (AlphaScreen™ technology). The compound EC50 values were obtained through fitting the concentration-response curves to a four-parameter logistic equation within GraphPad PRISM® software.

Each structure is given as a SMILES string.

Take `CC[C@H](C)[C@H](NC(=O)[C@H](Cc1ccccc1)NC(=O)[C@H](CCC(=O)O)NC(=O)[C@H](CCCCN)NC(=O)[C@H](C)NC(=O)[C@H](C)NC(=O)[C@H](CCC(N)=O)NC(=O)CNC(=O)[C@H](CCC(=O)O)NC(=O)[C@H](CC(C)C)NC(=O)[C@H](Cc1ccc(O)cc1)NC(=O)[C@H](CO)NC(=O)[C@H](CO)NC(=O)[C@@H](NC(=O)[C@H](CC(=O)O)NC(=O)[C@H](CO)NC(=O)[C@@H](NC(=O)[C@H](Cc1ccccc1)NC(=O)[C@@H](NC(=O)[C@@H]1CSC2C[C@@H](C(=O)O)[C@H](NC(=O)[C@H](C)NC(=O)[C@@H](N)Cc3c[nH]cn3)C(=O)N21)[C@@H](C)O)[C@@H](C)O)C(C)C)C(=O)N[C@@H](C)C(=O)N[C@@H](Cc1c[nH]c2ccccc12)C(=O)N[C@@H](CC(C)C)C(=O)N[C@H](C(=O)N[C@@H](CCCCN)C(=O)NCC(=O)N[C@@H](CCCNC(=N)N)C(=O)NCC(=O)O)C(C)C` (stereo partly shown) [16G]: the response was half-maximal at 56 nM (EC50).

Source of the values: patent publication US8642544B2, “N-terminus conformationally constrained GLP-1 receptor agonist compounds” (Amylin Pharmaceuticals, LLC, priority 2009, dated 2014).
